# Several values for one entry are separate records, joined by “and”; a condition that tells them apart may be missing. Equal values may be shown once. This is a selection; strong and weak results do not stand in their true shares. Records with an inconclusive call do not appear. Activity calls are given as the source filed them. Unless noted, the call rests on the fitted dose curve.
# Chains of the proteins cited; added tags and fusions are not shown.
# UniProt O94782, whole entry, looked up: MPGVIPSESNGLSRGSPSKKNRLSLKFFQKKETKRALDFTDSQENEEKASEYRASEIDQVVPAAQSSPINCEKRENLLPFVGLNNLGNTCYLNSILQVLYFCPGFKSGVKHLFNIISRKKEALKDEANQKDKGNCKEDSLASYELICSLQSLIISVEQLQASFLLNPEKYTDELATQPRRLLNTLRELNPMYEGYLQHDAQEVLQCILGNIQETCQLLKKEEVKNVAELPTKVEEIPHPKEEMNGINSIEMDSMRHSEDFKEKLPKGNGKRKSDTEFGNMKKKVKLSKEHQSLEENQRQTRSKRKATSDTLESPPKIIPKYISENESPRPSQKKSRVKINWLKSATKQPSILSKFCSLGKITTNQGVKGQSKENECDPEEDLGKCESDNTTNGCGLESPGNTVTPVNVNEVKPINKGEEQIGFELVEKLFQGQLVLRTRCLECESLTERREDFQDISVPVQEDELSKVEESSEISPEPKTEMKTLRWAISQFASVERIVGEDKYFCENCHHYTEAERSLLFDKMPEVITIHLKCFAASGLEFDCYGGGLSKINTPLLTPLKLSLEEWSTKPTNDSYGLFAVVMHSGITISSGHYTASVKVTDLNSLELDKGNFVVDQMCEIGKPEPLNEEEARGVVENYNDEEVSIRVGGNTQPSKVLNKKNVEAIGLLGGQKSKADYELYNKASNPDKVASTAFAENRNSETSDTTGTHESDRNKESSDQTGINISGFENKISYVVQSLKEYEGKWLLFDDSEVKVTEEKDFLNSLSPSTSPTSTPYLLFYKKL
# UniProt P10275, whole entry: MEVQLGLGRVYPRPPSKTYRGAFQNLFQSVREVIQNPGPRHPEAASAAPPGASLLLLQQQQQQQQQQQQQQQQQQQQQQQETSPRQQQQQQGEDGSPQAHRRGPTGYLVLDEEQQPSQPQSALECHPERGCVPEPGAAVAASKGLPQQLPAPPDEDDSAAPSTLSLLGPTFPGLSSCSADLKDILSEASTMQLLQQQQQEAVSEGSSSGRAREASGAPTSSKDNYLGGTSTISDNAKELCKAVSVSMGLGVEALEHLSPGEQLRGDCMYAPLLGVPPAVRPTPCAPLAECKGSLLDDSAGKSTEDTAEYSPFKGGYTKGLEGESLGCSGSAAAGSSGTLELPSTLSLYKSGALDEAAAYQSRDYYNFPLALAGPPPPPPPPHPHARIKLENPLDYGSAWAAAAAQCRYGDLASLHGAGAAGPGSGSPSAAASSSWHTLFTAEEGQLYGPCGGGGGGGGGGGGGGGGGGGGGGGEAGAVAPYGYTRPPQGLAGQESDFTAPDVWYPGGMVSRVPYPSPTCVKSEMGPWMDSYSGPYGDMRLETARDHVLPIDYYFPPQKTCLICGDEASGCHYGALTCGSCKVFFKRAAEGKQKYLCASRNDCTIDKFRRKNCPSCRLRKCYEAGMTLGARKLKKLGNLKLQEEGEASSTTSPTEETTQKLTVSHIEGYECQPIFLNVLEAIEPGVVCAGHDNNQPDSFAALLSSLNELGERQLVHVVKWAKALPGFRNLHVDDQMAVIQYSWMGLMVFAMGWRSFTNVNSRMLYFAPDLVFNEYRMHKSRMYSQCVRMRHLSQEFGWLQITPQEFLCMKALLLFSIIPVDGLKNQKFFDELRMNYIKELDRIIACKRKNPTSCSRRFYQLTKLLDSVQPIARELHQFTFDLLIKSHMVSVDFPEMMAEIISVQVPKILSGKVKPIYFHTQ
# UniProt Q03181, whole entry: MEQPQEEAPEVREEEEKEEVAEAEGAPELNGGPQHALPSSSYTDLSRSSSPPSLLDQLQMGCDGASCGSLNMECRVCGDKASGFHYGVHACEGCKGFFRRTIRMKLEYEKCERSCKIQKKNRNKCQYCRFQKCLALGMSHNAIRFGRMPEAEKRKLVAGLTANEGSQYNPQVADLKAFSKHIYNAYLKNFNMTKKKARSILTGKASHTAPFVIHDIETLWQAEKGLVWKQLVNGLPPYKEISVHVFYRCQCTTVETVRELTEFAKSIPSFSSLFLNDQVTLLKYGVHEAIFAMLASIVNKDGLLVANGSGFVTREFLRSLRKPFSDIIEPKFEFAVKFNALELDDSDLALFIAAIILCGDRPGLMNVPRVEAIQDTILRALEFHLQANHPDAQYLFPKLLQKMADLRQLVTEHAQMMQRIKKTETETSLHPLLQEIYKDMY
# UniProt P21728, whole entry: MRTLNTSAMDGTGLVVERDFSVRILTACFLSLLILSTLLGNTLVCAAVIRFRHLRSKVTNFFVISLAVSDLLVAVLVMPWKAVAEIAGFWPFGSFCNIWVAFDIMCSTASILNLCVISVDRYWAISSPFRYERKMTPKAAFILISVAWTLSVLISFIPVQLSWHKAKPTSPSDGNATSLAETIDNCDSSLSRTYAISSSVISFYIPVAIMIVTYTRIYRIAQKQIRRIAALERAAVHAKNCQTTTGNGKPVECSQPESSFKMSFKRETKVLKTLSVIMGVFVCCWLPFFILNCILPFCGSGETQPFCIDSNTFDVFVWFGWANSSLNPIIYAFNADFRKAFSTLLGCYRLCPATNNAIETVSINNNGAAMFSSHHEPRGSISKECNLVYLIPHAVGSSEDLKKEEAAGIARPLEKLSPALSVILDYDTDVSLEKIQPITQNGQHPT
# UniProt Q96QE3, whole entry: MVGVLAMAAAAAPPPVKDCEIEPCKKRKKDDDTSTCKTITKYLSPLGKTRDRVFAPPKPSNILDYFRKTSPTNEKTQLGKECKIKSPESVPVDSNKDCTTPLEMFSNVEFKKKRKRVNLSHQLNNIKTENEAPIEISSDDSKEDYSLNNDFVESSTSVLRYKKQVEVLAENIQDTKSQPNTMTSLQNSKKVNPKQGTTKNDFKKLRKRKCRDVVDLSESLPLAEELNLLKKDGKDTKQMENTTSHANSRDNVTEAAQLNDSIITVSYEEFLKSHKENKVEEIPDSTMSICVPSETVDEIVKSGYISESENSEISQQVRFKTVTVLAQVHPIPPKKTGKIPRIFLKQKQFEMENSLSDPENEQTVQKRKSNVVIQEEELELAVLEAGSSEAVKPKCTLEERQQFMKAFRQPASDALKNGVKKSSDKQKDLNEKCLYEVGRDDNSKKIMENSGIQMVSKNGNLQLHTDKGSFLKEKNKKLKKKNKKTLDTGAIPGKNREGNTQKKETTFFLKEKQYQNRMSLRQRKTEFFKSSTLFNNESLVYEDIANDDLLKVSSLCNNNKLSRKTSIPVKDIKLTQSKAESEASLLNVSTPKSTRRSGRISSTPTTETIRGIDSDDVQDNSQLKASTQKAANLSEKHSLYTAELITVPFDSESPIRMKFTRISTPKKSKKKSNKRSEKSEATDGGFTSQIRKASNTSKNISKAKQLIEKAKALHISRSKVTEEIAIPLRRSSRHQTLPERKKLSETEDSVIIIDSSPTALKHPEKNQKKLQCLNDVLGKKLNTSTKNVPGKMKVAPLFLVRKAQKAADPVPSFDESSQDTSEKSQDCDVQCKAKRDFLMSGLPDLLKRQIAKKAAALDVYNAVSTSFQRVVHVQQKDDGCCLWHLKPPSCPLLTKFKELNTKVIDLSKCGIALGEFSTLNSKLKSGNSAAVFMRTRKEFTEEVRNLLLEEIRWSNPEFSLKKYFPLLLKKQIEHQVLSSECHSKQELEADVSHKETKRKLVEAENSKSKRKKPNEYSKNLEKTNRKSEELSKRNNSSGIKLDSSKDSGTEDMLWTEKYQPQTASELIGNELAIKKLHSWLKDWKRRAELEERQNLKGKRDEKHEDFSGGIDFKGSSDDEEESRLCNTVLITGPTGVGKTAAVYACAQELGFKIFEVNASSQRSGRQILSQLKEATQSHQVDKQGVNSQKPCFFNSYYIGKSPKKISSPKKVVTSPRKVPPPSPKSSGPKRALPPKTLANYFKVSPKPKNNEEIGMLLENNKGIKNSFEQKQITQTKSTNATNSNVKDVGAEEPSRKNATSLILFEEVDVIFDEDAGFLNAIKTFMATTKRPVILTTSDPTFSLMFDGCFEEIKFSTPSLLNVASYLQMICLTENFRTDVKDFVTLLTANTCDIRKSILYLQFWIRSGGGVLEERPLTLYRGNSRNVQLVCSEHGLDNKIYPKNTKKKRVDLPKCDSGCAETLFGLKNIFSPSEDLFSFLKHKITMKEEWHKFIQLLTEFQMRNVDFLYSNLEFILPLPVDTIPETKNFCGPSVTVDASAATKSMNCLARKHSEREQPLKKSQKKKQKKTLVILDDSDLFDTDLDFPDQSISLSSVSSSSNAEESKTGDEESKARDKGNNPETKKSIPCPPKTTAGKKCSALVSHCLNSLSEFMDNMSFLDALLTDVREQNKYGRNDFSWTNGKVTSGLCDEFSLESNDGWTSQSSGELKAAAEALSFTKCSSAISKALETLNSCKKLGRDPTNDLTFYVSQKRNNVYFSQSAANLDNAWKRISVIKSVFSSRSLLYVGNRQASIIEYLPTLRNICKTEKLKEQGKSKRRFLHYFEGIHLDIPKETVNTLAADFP
# UniProt P51570, whole entry: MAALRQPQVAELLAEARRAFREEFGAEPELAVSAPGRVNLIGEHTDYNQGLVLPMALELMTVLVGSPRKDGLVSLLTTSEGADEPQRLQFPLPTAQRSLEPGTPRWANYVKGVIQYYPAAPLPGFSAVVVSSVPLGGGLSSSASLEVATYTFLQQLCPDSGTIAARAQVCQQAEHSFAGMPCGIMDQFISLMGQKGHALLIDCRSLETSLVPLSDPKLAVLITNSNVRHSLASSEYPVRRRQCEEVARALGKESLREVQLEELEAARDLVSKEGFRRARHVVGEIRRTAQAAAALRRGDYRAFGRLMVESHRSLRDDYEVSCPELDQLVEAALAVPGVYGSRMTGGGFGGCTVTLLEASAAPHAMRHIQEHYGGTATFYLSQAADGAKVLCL
# Legend:
# [1] = target: Ubiquitin carboxyl-terminal hydrolase 1 (Homo sapiens) (UniProt O94782); experiment: Inhibitors of USP1/UAF1: Pilot qHTS (AID 504865; active means well fitted curve in the direction sought with a large enough effect; an effect the other way counts as inactive or inconclusive; further: nearly all actives have a fitted effect of over 35% in size; further: potency means the concentration at half of the fitted maximal effect); conditions: purified USP1/UAF1, Ub-rhodamine cleavage fluorescence; series mostly up to 114 µM
# [2] = target: Estrogen receptor (Homo sapiens) (UniProt P03372); experiment: qHTS assay for small molecule antagonists of estrogen receptor alpha signaling (AID 588513; active means well fitted curve in the direction sought with a large enough effect in the signal ratio, with a control signal flat, not every such curve was filed as active; the % refers to the signal ratio; further: on the % scale 0 is the no-effect control and ±100 the full control effect); conditions: ER-alpha-UAS-bla HEK293, beta-lactamase ratio, antagonist mode; at 76.9 µM (top of the series)
# [3] = target: Estrogen receptor (Homo sapiens) (UniProt P03372); experiment: qHTS assay for small molecule agonists of estrogen receptor alpha signaling (AID 588514); conditions: ER-alpha-UAS-bla HEK293, beta-lactamase ratio, 18 h, percent of full estradiol response, vehicle zero; at 76.8 µM (top of the series);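 further: 0% = vehicle only and 100% = reference agonist; nearly all actives have a fitted effect of over 70% in size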
# [4] = target: Androgen receptor (Homo sapiens) (UniProt P10275); experiment: qHTS assay for small molecule agonists of androgen receptor signaling (AID 588515; active means well fitted curve in the direction sought with a large enough effect in the signal ratio, with a control signal flat; the % refers to the signal ratio; further: on the % scale 0 is the no-effect control and ±100 the full control effect); conditions: AR-UAS-bla HEK293, beta-lactamase ratio, agonist 16 h; hits give high values
# [5] = target: Androgen receptor (Homo sapiens) (UniProt P10275); experiment: qHTS assay for small molecule antagonists of androgen receptor signaling (AID 588516; active means well fitted curve in the direction sought with a large enough effect in the signal ratio, with a control signal flat, not every such curve was filed as active; the % refers to the signal ratio; further: on the % scale 0 is the no-effect control and ±100 the full control effect); conditions: AR-UAS-bla HEK293, beta-lactamase ratio, antagonist mode, 16 h; at 76.8 µM (top of the series)
# [6] = target: Bile acid receptor (Homo sapiens) (UniProt Q96RI1); experiment: qHTS assay for small molecule antagonists of farnesoid X receptor signaling (AID 588526); conditions: HEK293T FXR-UAS-bla, beta-lactamase ratio, antagonist mode; at 76.7 µM (top of the series); further: on the % scale 0 is the no-effect control and ±100 the full control effect
# [7] = target: Bile acid receptor (Homo sapiens) (UniProt Q96RI1); experiment: qHTS assay for small molecule agonists of farnesoid X receptor signaling (AID 588527); conditions: HEK293T FXR-UAS-bla, beta-lactamase ratio, 16 h; hits give high values;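 further: 0% = vehicle basal and 100% = reference agonist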
# [8] = target: Glucocorticoid receptor (Homo sapiens) (UniProt P04150); experiment: qHTS assay for small molecule agonists of glucocorticoid receptor signaling (AID 588532; active means well fitted curve in the direction sought with a large enough effect in the signal ratio, with a control signal flat; the % refers to the signal ratio;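 further: 100% = dexamethasone at 0.1 µM and 0% = DMSO only wells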); conditions: HeLa MMTV-bla, beta-lactamase ratio, agonist, 18 h; hits give high values
# [9] = target: Glucocorticoid receptor (Homo sapiens) (UniProt P04150); experiment: qHTS assay for small molecule antagonists of glucocorticoid receptor signaling (AID 588533; active means well fitted inhibition curve with a large enough effect in the signal ratio, with a control signal flat, not every such curve was filed as active; the % refers to the signal ratio); conditions: HeLa MMTV-bla, GRE beta-lactamase ratio, antagonist mode, 18 h; at 76.8 µM (top of the series)
# [10] = target: Peroxisome proliferator-activated receptor delta (Homo sapiens) (UniProt Q03181); experiment: qHTS assay for small molecule agonists of peroxisome proliferator-activated receptor delta signaling (AID 588534); conditions: HEK293T PPARdelta-UAS-bla, beta-lactamase ratio, 18 h; at 76.7 µM (top of the series);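 further: 0% = DMSO basal wells and 100% = positive control agonist at 10 µM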
# [11] = target: D(1A) dopamine receptor (Homo sapiens) (UniProt P21728); experiment: HTS Assay for Allosteric Agonists of the Human D1 Dopamine Receptor: Primary Screen for Antagonists (AID 488983; active means well fitted curve in the direction sought with a large enough effect; an effect the other way counts as inactive or inconclusive;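 further: calcium flux response to an EC80 dopamine challenge measured with no-wash dye; on the % scale 0 is the no-effect control and ±100 the full control effect; nearly all actives have a fitted effect of over 65% in size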); conditions: D1 receptor cell assay, antagonist mode, qHTS titration; at 41.8 µM (top of the series)
# [12] = Validation screen for small molecules that induce genotoxicity in human embryonic kidney (HEK293T) cells expressing luciferase-tagged ELG1 (AID 493106; active means well fitted curve in the direction sought with a large enough effect; an effect the other way counts as inactive or inconclusive; further: 0% is about no effect); conditions: luminescence; at 46.1 µM (top of the series)
# Procedure, shortened: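 ELG1-luciferase reporter readout (ONE-Glo, 30 min, room temperature) after 16 hr compound treatment at 37 °C of HEK293T cells at 2,000 per well. Rising luminescence flags genotoxic stress.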
# [13] = target: ATPase family AAA domain-containing protein 5 (Homo sapiens) (UniProt Q96QE3); experiment: Validation screen for small molecules that inhibit ELG1-dependent DNA repair in human embryonic kidney (HEK293T) cells expressing luciferase-tagged ELG1 (AID 493107; active means well fitted curve in the direction sought with a large enough effect; an effect the other way counts as inactive or inconclusive;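 further: on the % scale 0 is the no-effect control and ±100 the full control effect; inhibitors lower the ELG1-luciferase luminescence signal; nearly all actives have a fitted effect of over 70% in size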); conditions: HEK293T ELG1-luciferase level, luminescence, 5-fluorouridine co-treatment, 16 h; at 46.1 µM (top of the series)
# Procedure, shortened: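 Luciferase read-out, ONE-Glo, 30 min at room temperature, follows 16 h co-exposure at 37 C of compound and the DNA-damaging agent 5-fluorouridine. Cells: HEK293T with ELG1-luciferase fusion, 2,000 per well, DMSO as vehicle.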
# [14] = Nrf2 qHTS screen for inhibitors: Validation (AID 493153; active means well fitted inhibition curve with a large enough effect in the main read-out, with a control signal flat, not every such curve was filed as active;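 further: A549 cells with ARE-driven firefly luciferase reporter reporting Nrf2 activity; % of control where 0% means no effect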); conditions: A549 ARE-Fluc reporter, luciferase luminescence, 18-24 h; at 46.1 µM (top of the series)
# Procedure, shortened: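 Concentration-response on A549 ARE_Fluc reporter cells exposed 18-24 h at 37 C, 5% CO2. Cytotoxicity read first by CellTiter-Fluor fluorescence (Ex 405/Em 525), then Nrf2 inhibition by BugLite luminescence after 15 min.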
# [15] = qHTS for Inhibitors of Cell Surface uPA Generation: Validation Assay (AID 493164; active means well fitted curve in the direction sought with a large enough effect; an effect the other way counts as inactive or inconclusive;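 further: RAW 264.7 macrophage cells exposed to compound for 18 h; 0% is about no effect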); conditions: mouse cells, plasminogen activation; at 38.3 µM (top of the series)
# Procedure, shortened: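 ATP-Lite luminescence read-out: ATP remains high when uPA activity-dependent LF translocation into the cytoplasm is blocked. RAW 264.7 cells, 18 h compound exposure at 37 C; 7-point titration, 2.45 nM to 38.3 uM final.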
# [16] = target: Galactokinase (Homo sapiens) (UniProt P51570); experiment: qHTS Validation Assay for Inhibitors of Human Galactokinase (GALK) (AID 493189; active means well fitted curve in the direction sought with a large enough effect; an effect the other way counts as inactive or inconclusive; further: 0% is about no effect); conditions: purified human GALK enzyme activity, qHTS 7-point titration; at 57.5 µM (top of the series)
# Procedure, shortened: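 5 nM GALK / 100 uM galactose / 35 uM ATP, 20 mM HEPES pH8.0, 5 mM MgCl2, 60 mM NaCl, 1 mM DTT, 0.01% BSA (final). RT 1 h; Kinase-Glo Plus luminescence.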
# [17] = Validation screen for small molecules that induce DNA re-replication in SW480 colon adenocarcinoma cells (AID 504364; active means well fitted curve in the direction sought with a large enough effect; an effect the other way counts as inactive or inconclusive; further: 0% is about no effect); conditions: DNA re-replication phenotype (high-content imaging); at 46.1 µM (top of the series)
# Procedure, shortened: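 Image-based DNA content read-out: Hoechst stain 40 min, total nuclear fluorescence intensity (ex 405 nm, em 500-530 nm) after 48 h compound exposure of 250 SW480 cells/well at 37 C, 5% CO2, versus DMSO vehicle.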
# [18] = Inducers of the Endoplasmic Reticulum Stress Response (ERSR) in human glioma: Validation (AID 504836; active means well fitted curve in the direction sought with a large enough effect; an effect the other way counts as inactive or inconclusive; further: 0% is about no effect); conditions: human glioma cells, ER stress response reporter; at 38.3 µM (top of the series)
# Procedure, shortened: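 Stably transfected U87-MG human glioma cells carrying a GRP78-based luminescent sensor were seeded at 1000 cells/well, pin-dosed with compounds and incubated 16 h. Luciferase reagent was then added, and end-point luminescence was read after 10 min at room temperature.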
# [19] = qHTS for Inhibitors of ATXN expression: Validation of Cytotoxic Assay (AID 588349; active means well fitted curve in the direction sought with a large enough effect; an effect the other way counts as inactive or inconclusive; further: on the % scale 0 is the no-effect control and ±100 the full control effect); conditions: cytotoxicity counter-screen for ATXN expression inhibitors, cell viability; at 57.1 µM (top of the series)
# Procedure, shortened: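 Cytotoxicity counter-screen: ATP-based luminescent viability (CellTiter Glo) after 72 hr exposure of HEK293 cells to a compound titration at 37 degrees C.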
# [20] = qHTS for Inhibitors of ATXN expression: Validation (AID 588378; active means well fitted curve in the direction sought with a large enough effect; an effect the other way counts as inactive or inconclusive; further: on the % scale 0 is the no-effect control and ±100 the full control effect; nearly all actives have a fitted effect of over 75% in size); conditions: cell-based ATXN2 expression reporter assay, luminescence; at 57.1 µM (top of the series)
# Procedure, shortened: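 Compounds were pinned onto attached HEK293 cells carrying an ATXN2-firefly luciferase construct and incubated 24 hrs at 37 degrees C. Each well then received a fluorescent viability reagent followed by luciferase substrate for end-point luminescence.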
smiles,measurement,setting,value
CN(C)CCS,Potency,[1],inactive
CCC(C)(OO)OOC(C)(CC)OO (stereo not drawn),"activity, negative = inhibition",[2],inactive: 4.24% and inactive: -1.14%
same,activation,[3],inactive: -0.562% and inactive: -3.66%
same,activation,[4],inactive: 10.8% and inactive: -3.78%
same,"activity change, negative = inhibition",[5],inactive: -6.35% and inactive: -7.28%
same,"activity change, negative = inhibition",[6],inactive: -0.863% and inactive: 12.1%
same,activation,[7],inactive: -0.0852% and inactive: -1.48%
same,activation,[8],inactive: 2.13% and inactive: -3.92%
same,"activity change, negative = inhibition",[9],inactive: -4.72%
same,activation,[10],inactive: 12.2% and inactive: 3.01%
Cc1c([N+](=O)[O-])cccc1[N+](=O)[O-],"activity change, negative = inhibition",[6],inactive: -7.75% and inactive: -1.57%
same,activation,[7],inactive: -0.419% and inactive: -0.602%
same,activation,[8],inactive: 1.62% and inactive: -12.5%
same,"activity change, negative = inhibition",[9],inactive: 15.1% and inactive: -4.85%
same,activation,[10],inactive: 6.71% and inactive: -6.19%
CCOP(=O)(CC)OCC,"activity change, negative = inhibition",[6],inactive: -11%
same,activation,[7],inactive: -3.32%
same,activation,[8],inactive: -2.11%
same,"activity change, negative = inhibition",[9],inactive: 1.36%
CC(C)OP(=O)(F)OC(C)C,Potency,[1],inactive
OCCSCCO,Potency,[1],inactive
Cc1ccc([N+](=O)[O-])cc1[N+](=O)[O-],"activity, negative = inhibition",[2],inactive: -9.66% and inactive: 22.9%
same,activation,[3],inactive: 3.1% and inactive: 0.492%
CCOP(=S)(CC)Oc1cc(Cl)c(Cl)cc1Cl (stereo not drawn),activation,[3],inactive: 14%
same,activation,[4],inactive: -1.98%
same,"activity change, negative = inhibition",[5],inactive: -17.1%
same,"activity change, negative = inhibition",[6],inactive: -5.72%
same,activation,[7],inactive: 1.39%
same,activation,[8],inactive: 5.51%
same,"activity change, negative = inhibition",[9],inactive: -12%
same,activation,[10],inactive: 2.14%
C/C1=C2N=C(/C=C3N=C(/C(C)=C4\[N-][C@@](C)([C@H]5N=C1[C@@](C)(CCC(=O)NC[C@H](C)OP(=O)([O-])O[C@@H]1[C@H](O)[C@H](n6cnc7cc(C)c(C)cc76)O[C@@H]1CO)[C@@H]5CC(N)=O)[C@](C)(CC(N)=O)[C@H]4CCC(N)=O)[C@@](C)(CC(N)=O)[C@@H]\3CCC(N)=O)C(C)(C)[C@@H]/2CCC(N)=O.[C-]#N.[Co+3],Potency,[1],inactive
N#[O+].[C-]#N.[C-]#N.[C-]#N.[C-]#N.[C-]#N.[Fe+2].[Na+].[Na+],"activity change, negative = inhibition",[11],inactive: 2.26%
same,"activity change, positive = ELG1 induction",[12],inactive: -8.25%
same,"activity change, negative = decrease",[13],inactive: 6.52%
same,"activity change, negative = inhibition",[14],inactive: -21.1%
same,activity change,[15],inactive: 0.633%
same,"activity change, negative = inhibition",[16],inactive: -4.15%
same,activity (re-replication induction),[17],inactive: -6.99%
same,activation,[18],inactive: -0.556%
same,Potency,[1],active: 22.4 µM and active: 20 µM
same,"activity change, negative = cytotoxicity",[19],inactive: -16.1%
same,"activity change, negative = inhibition",[20],inactive: -4.18%
CCN(CCCl)Cc1ccccc1C,Potency,[1],inactive
O=[N+]([O-])[O-].[NH4+],activation,[8],inactive: 1.35%
same,"activity change, negative = inhibition",[9],inactive: 0.385%
Cc1cccc([N+](=O)[O-])c1[N+](=O)[O-],activation,[4],inactive: -9.79%
same,"activity change, negative = inhibition",[5],inactive: -13%
same,activation,[8],inactive: 2.22% and inactive: 1.91%
same,"activity change, negative = inhibition",[9],inactive: -7.34%
same,activation,[10],inactive: -0.0575% and inactive: -1.01%
O=[N+]([O-])c1cccc([N+](=O)[O-])c1,Potency,[1],inactive
same,"activity, negative = inhibition",[2],inactive: -20.8% and inactive: -0.0557%
same,activation,[3],inactive: -0.292% and inactive: 2.07%
same,"activity change, negative = inhibition",[6],inactive: 15.6%
same,activation,[7],inactive: 3.63% and inactive: 2.17%
same,activation,[8],inactive: 2.4% and inactive: 0.597%
same,"activity change, negative = inhibition",[9],inactive: 22%
same,activation,[10],inactive: 0.54% and inactive: 5.33%
Cc1ccc([N+](=O)[O-])c([N+](=O)[O-])c1,"activity, negative = inhibition",[2],inactive: -23.6%
same,activation,[3],inactive: 0.178% and inactive: -4.98%
same,activation,[8],inactive: 3.57%
same,"activity change, negative = inhibition",[9],inactive: -3.59% and inactive: -1.24%

# — PubChem BioAssay (NCATS)
